Only a part is listed here, and it is no random draw. Calls of active or inactive are those of the source. Cut-off read from the data, not from the text of the source: active = activation above about 50%; inconclusive = mostly about 30% to 49%; inactive = weaker than that.

The experiment in a line: qHTS of IL-2 Activators. Note: 0% is about no effect. As to conditions: IL-2 activation reporter assay, cell-based qHTS; active compounds read high; in transgenic mouse T cells; stimulated with anti-CD3/CD4/CD28 beads. The source says: The adaptive immune response against any infectious agent begins with the activation of an antigen specific T cell. This relatively rare and inert ("naive") T cell undergoes a massive proliferative expansion and differentiation process to generate sufficient number of potent pathogen-specific effector T cells. The effector T cells fight the infection by making cytokines and helping other cells to become fully armed as well. If any naive T cell has antigen receptors (TCRs) that can be activated by self peptides, then a variety of regulatory mechanisms kick in to prevent this cell from performing to its full potential. These processes collectively constitute the phenomenon of immunological tolerance and their failure leads to autoimmunity. One arm of tolerance involves generation of biochemical negative feedback downstream of the TCR (tuning). This is especially relevant to self antigens present in the body over long periods of time (chronic), which form the bulk of our proteome. The negative feedback serves to tune the TCR signaling, such that the ambient antigenic stimulation is nullified intracellularly. Unfortunately, this critical machinery serves as a target for chronic viral, bacterial and parasitic infections (as well as tumors), which can evade a robust immune response, simply by allowing T cells to tune down their signaling to pathogen or malignancy derived antigens. As such, disrupting the tuning in such cases would allow the tolerant T cell to function again and deliver a robust effector response.
If a therapeutic can restore responsiveness to the tuned down T cell, even for a short time, they could combat the pathogen without any additional immunization. To that end, we have developed a sensitive HTS T cell based assay based on IL-2. This assay will be screened against the Molecular Libraries Small Molecule Repository (MLSMR) to find small molecules that could elicit this response.
NIH Chemical Genomics Center [NCGC]
NIH Molecular Libraries Probe Centers Network [MLPCN]
Assay Submitter (PI): Ron Schwartz, NIAID
4 microL (750 cells/well) of unstimulated transgenic mouse T cells (columns 1-3,5-48) are dispensed into Aurora LoBase, black clear-bottom 1536-well assay plates; column 4 receives an identical concentration of transgenic memory T cells as a non-tolerant control. Compounds are then transferred via Kalypsys pin tool equipped with 1536-pin array (10 nL slotted pins, V&P Scientific, San Diego, CA). Following addition of compound and a 60 minute incubation, 1 microL of bead stimulation solution ((0.04 micron Fluospheres (Life technologies, CA) coated with 10ug/ml each anti-CD3 and anti-CD4 (clones 2C11 and GK1.5, BD Biosciences, CA) and mixed with 1ug/ml anti-CD28 (clone PV-1, BD biosciences, CA)). columns 2-48) is added to stimulate the IL-2 response pathway; media is instead added to column 1 as an unstimulated control, while PMA/ionomycin (Sigma Aldrich, MO) is added to column 3 as a control for IL-2 tolerance bypass. The plates are then incubated at 37 degrees C for 18 hours. EGFP and DsRed signal are then detected using an Acumen eX3 Explorer fluorescent plate cytometer. All cells are dispensed in cell media containing EHAA (Quality Biologicals, MD), RPMI (Quality Biologicals, MD), Glutamine (Life Technologies, CA), Penicillin/Streptomycin (Quality Biologicals, MD), 2-ME (Sigma Aldrich, MO) and 10% FBS (Gemini Bioproducts, CA) .
Regarding `Cc1cc(N(CCCl)CCCl)ccc1C=O`, the activation is inactive: -4.05%.
As for `CCCN1CCC(Nc2cc(OC)cc(OC)c2)CC1`, the figure is inactive: -0.161%; as for `O=c1[nH]c2ccccc2n1C1CCN(C(c2ccccc2)c2nnnn2C2CCCC2)CC1` (stereo unspecified), inactive: -0.26%.
Consider `Cc1ccc(C(=O)NCC2(N3CCCCC3)CCCCC2)o1`, for which the activation is inactive: 0.283%.
Take `Fc1ccccc1NC1CCN(Cc2ccccc2)CC1`: the activation is inactive: -1.01%.
Regarding `Cc1ccc(Nc2c([N+](=O)[O-])cc([N+](=O)[O-])cc2[N+](=O)[O-])cc1`, the activation is inactive: -2.78%.
Then `Cc1ccc(NC2(C#N)CCN(Cc3ccccc3)CC2)cc1`, with inactive: -0.779%.
For `COc1cccc(C(c2nnnn2C2CCCCC2)N2CCC(n3c(=O)[nH]c4ccccc43)CC2)c1OC` (stereo unspecified), the activation was inactive: -0.0043%.
In the case of `CC(=O)N(c1ccccc1)C1CCNCC1`, the activation was inactive: -0.86%.
As to `CCC(c1nnnn1C1CCCCC1)N1CCC(n2c(=O)[nH]c3ccccc32)CC1` (stereo unspecified), the activation is inactive: 1.09%.
As for `COc1cc(OC)cc(C(=O)NCC2(N3CCCCC3)CCCCC2)c1`, the figure is inactive: -0.405%; as for `O=c1[nH]c2ccccc2n1C1CCN(C(c2ccnc3ccccc23)c2nnnn2C2CCCCC2)CC1` (stereo unspecified), inactive: 0.114%.
As to `O=C(NCC1(N2CCCCC2)CCCCC1)c1ccco1`, the activation was inactive: 0.502%.
Consider `CN(C)c1ccc(C(=O)NCC2(N3CCCCC3)CCCCC2)cc1`, for which the activation was inactive: -1.89%.
As for `Cn1c(=O)[nH]cc(N(CCCl)CCCl)c1=O`, the activation was inactive: -2.87%.
With `Cc1ccccc1NC1(C#N)CCN(Cc2ccccc2)CC1`, the activation is inactive: 0.885%.
As for `CCN1CCC(Nc2cccc(F)c2)CC1`, the figure is inactive: -2.78%; as for `COc1ccc(C(c2nnnn2C2CCCCC2)N2CCC(n3c(=O)[nH]c4ccccc43)CC2)cc1` (stereo unspecified), inactive: -0.441%; as for `CC(C)(C)n1nnnc1C(c1ccnc2ccccc12)N1CCC(n2c(=O)[nH]c3ccccc32)CC1` (stereo unspecified), inactive: 1.38%.
`CC(C)(C)OC(=O)N1CCC(Nc2ccccc2)CC1`: the activation is inactive: -1.52%.
As for `O=C(O)C1(Nc2ccccc2)CCN(Cc2ccccc2)CC1`, the figure is inactive: -0.823%; as for `NN(c1ccccc1)C1CCN(CCc2ccccc2)CC1`, inactive: -0.0724%; as for `O=c1[nH]c2ccccc2n1C1CCN(C(c2cc3ccccc3o2)c2nnnn2C2CCCC2)CC1` (stereo unspecified), inactive: -0.448%.
For `CCCOc1ccc(C(=O)NCC2(N(C)C)CCCCC2)cc1`, the activation is inactive: 7.73%.
Take `CCOc1ncccc1C(=O)NCC1(N2CCOCC2)CCCCC1`: the activation was inactive: 0.862%.
Then `CN1CCC(Nc2ccc(F)c(Cl)c2)CC1`, with inactive: -0.127%; and `CN1CCC(Nc2ccc(Cl)cc2)CC1`, with inactive: 0.499%; and `COc1cccc(C(c2nnnn2C2CCCC2)N2CCC(n3c(=O)[nH]c4ccccc43)CC2)c1OC` (stereo unspecified), with inactive: -0.141%.
As for `COc1cc(OC)cc(C(=O)NCC2(N3CCOCC3)CCCCC2)c1`, the activation is inactive: 1.94%.
For the molecule `COc1cccc(C(=O)N(c2cc(C)cc(C)c2)C2CCN(C(=O)OC(C)(C)C)CC2)c1`, the activation was inactive: -0.166%.
Regarding `CCC(CO)(C(=O)OC1CN2CCC1CC2)c1ccccc1` (stereo unspecified), the activation was inactive: 0.851%.

Values taken from PubChem BioAssay AID652025 (National Center for Advancing Translational Sciences (NCATS), 2013).
